## Antibody variant affinities, Ab-95 light chain, assay 2

Source: Engelhart et al. 2022 (doi:10.1038/s41597-022-01779-4), MIT Lincoln Laboratory and A-Alpha Bio; data file from the FLAb repository.

All variants were tested on one target, the spike HR2 peptide PDVDLGDISGINAS (SARS-CoV-2).

Ab-95 is the parent antibody, in scFv form: VH, then the linker GGGGSGGGGSGGGGS, then VL. The heavy chain is unchanged in all variants.
VH: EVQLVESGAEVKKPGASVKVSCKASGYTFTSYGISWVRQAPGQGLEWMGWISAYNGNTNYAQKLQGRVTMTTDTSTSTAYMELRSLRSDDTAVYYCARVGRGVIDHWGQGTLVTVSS
VL: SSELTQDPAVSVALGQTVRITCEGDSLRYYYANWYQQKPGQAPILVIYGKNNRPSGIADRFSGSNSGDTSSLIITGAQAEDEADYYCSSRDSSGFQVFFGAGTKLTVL

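Variants in AAYL52 differ from the parent at up to three CDR positions; double and triple changes were sampled at random. In AlphaSeq, yeast of one mating type display the scFv and yeast of the other type display the target. Mating (16 h, 30 °C) was followed by selection of diploids and sequencing of their barcodes. Scores were corrected for input abundance and mapped to Kd with protein pairs of known affinity run in the same pool. Each pool was mated in three replicate cultures.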

Variants are written as CDR1, CDR2 and CDR3 of the light chain (limits as in the source). Parent: EGDSLRYYYAN, GKNNRPS, SSRDSSGFQVF.
Scale: log10 of Kd in nM, estimated from mating counts; low values are strong binders.
A mean of the replicates is given; it leaves out those without a signal.
A pair that was not seen in any replicate is written "no signal"; this usually means weak binding, but a binder can also be missed.
In this assay the parent's reference entry averaged 2.31; its copy inside this library read 2.25.

MGDSLRYYYAN | GKNGRPS | SSRDSSGPQVF: 3.18 (2 of 3 replicates; controls 0 of 9).
ETDSLRYYYAN | GKPNRPS | SSRDSSGFQVF: 3.21 (3 of 3 replicates; controls 5 of 9).
ETDSLSYYYAN | GKNNRPS | SSRPSSGFQVF: 3.54 (1 of 3 replicates; controls 4 of 9).
EGDRLRNYYAN | GKNNRPS | SSRDSSGFQVF: 3.64 (3 of 3 replicates; controls 3 of 9).
EGASLSYYYAN | GKNNRPS | DSRDSSGFQVF: 4.29 (2 of 3 replicates; controls 2 of 9).
EGDSLRYYCAN | GKNNRPS | SSFDSSGFQVF: 3.64 (3 of 3 replicates; controls 0 of 9).
EGDSLRYYYAN | GKNNRPS | SHWDASGFQVF: 4.27 (2 of 3 replicates; controls 6 of 9).
EGDSLRYYYAN | GKNNCPS | SSRRSSMFQVF: 3.28 (1 of 3 replicates; controls 1 of 9).
EMDLLRYYYAN | GKNVRPS | SSRDSSGFQVF: 4.32 (2 of 3 replicates; controls 4 of 9).
EGDSLRYYYAN | GKNNRSS | SSRIDSGFQVF: 3.83 (2 of 3 replicates; controls 1 of 9).
EGDSLRYYYAN | GKNNRPS | MSRDSSFFQVK: 3.13 (3 of 3 replicates; controls 3 of 9).
EGDSLRYYYAN | FKNNIPA | SSRDSSGFQVF: 4.38 (2 of 3 replicates; controls 0 of 9).
EGDSLRYYYAN | GKVNRPS | SSRDSYGTQVF: 2.68 (3 of 3 replicates; controls 0 of 9).
EGDSLRYYYAN | GKTNRPS | LSRDYSGFQVF: no signal (0 of 3 replicates; controls 1 of 9).
EGDSLRYYAAN | WKQNRPS | SSRDSSGFQVF: no signal (0 of 3 replicates; controls 0 of 9).
EGDSLRYDYAN | GKNNRPS | SKRDSSTFQVF: no signal (0 of 3 replicates; controls 0 of 9).
EGDSLRYYYWN | GKNNRPW | SPRDSSGFQVF: 4.26 (1 of 3 replicates; controls 1 of 9).
EGDSLQYYYAN | GKNNRPS | SSRQKSGFQVF: no signal (0 of 3 replicates; controls 1 of 9).
EGDSLRYYYDN | GKNNRPS | VSRDSRGFQVF: no signal (0 of 3 replicates; controls 0 of 9).
EGDSLRYYYAN | GKNFRPS | YSTDSSGFQVF: 2.60 (3 of 3 replicates; controls 2 of 9).
EGDSLRYYYAN | GKNNRPP | GSRDSNGFQVF: 5.05 (2 of 3 replicates; controls 2 of 9).
EGDSLRYYYAN | GKNNRPS | WSRDSSYFQVC: no signal (0 of 3 replicates; controls 3 of 9).
FGDSLRYYYAN | GKNNRSS | SSRDSSGFQVF: 2.76 (3 of 3 replicates; controls 0 of 9).
EGDSLRYYYAN | GANNRPS | SSFLSSGFQVF: 3.59 (2 of 3 replicates; controls 0 of 9).
EKDSLRYTYAN | GKNNRPS | SSRDSSGFQVY: 4.00 (3 of 3 replicates; controls 3 of 9).
EGDSYRYYYAN | GMNNRPS | SSRDSSGFTVF: 3.94 (2 of 3 replicates; controls 4 of 9).
EGDSLRYYYAN | GKNNRPS | TSRDESGFQVF: 3.88 (1 of 3 replicates; controls 0 of 9).
DGDSLRYYYAN | PYNNRPS | SSRDSSGFQVF: 4.28 (2 of 3 replicates; controls 5 of 9).
EGDSLRVYYAN | GKNNRPS | SSVDSSGFQVF: no signal (0 of 3 replicates; controls 3 of 9).
EGDSLRYYYAN | MKCNRSS | SSRDSSGFQVF: no signal (0 of 3 replicates; controls 0 of 9).
EGDSLRYYYAN | CKNPRPN | SSRDSSGFQVF: 3.43 (3 of 3 replicates; controls 5 of 9).
SGDSLRYYYAF | GFNNRPS | SSRDSSGFQVF: 4.40 (2 of 3 replicates; controls 1 of 9).
EGDSLRYYYAN | GKNVRQS | SSRDSSGFNVF: 2.41 (3 of 3 replicates; controls 2 of 9).
EGDSLRYYYAN | GKNNTPS | SSRDSSAFQVA: 2.64 (3 of 3 replicates; controls 2 of 9).
EGDSLRNYYAN | GKNNRPS | SSRDSAGQQVF: 2.76 (3 of 3 replicates; controls 1 of 9).
EGDSLRYYYAN | GKKNRPS | SSRDSDGGQVF: no signal (0 of 3 replicates; controls 2 of 9).
EGDSLRYYYDW | GKNNRPS | SSRDSSAFQVF: 4.18 (3 of 3 replicates; controls 1 of 9).
EGDSLRYYSAN | GKPERPS | SSRDSSGFQVF: 2.68 (3 of 3 replicates; controls 8 of 9).
RGDSLRYYYAN | GKNNRPS | SPRFSSGFQVF: 2.43 (3 of 3 replicates; controls 4 of 9).

Picked from the list: the 5 lowest averages where every replicate gave a value.

CDR-L1	CDR-L2	CDR-L3	mean log10 Kd (nM)	detected	signal with controls
EGDSLRYYYAN	GKNVRQS	SSRDSSGFNVF	2.41	3 of 3	2 of 9
RGDSLRYYYAN	GKNNRPS	SPRFSSGFQVF	2.43	3 of 3	4 of 9
EGDSLRYYYAN	GKNFRPS	YSTDSSGFQVF	2.60	3 of 3	2 of 9
EGDSLRYYYAN	GKNNTPS	SSRDSSAFQVA	2.64	3 of 3	2 of 9
EGDSLRYYSAN	GKPERPS	SSRDSSGFQVF	2.68	3 of 3	8 of 9

Empty control strains, which show no peptide, gave a signal in 28% of pairings with library AAYL52; the median was 3.91 and 95% of these signals were weaker than 2.90. No background was subtracted. Also given: how often the same scFv was detected with the empty control strains.